Molecular target: T1, MR (Homo sapiens, UniProt P08235)
T1 construct: expressed in transfected cells; host or cells: Huh7 human liver cells (ATCC), transient transfection with FuGENE 6
T1 sequence (P08235 726-964 limits assumed): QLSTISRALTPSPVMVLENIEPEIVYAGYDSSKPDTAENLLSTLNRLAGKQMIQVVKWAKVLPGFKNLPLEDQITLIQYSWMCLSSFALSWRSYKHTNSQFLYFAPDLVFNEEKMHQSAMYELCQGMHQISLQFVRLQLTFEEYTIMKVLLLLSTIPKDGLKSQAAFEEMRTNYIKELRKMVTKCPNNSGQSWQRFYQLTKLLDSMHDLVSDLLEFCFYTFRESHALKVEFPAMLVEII
Test: Cell-based reporter assay (Gal4-MR-LBD luciferase, antagonist mode)
Protocol: To measure the ability of test compound in the present invention to modulate the activity of MR (agonize, antagonize, partially agonize, partially antagonize), bioassays were performed that measured the modulation of reporter gene expression. Cells were transiently transfected with a luciferase reporter gene under the control of a Gal4 response element (Gal4-RE-luc) and a plasmid containing the Gal4 DNA binding domain fused to the MR ligand binding domain (Gal4-MR-LBD). Agonists can bind to and activate the MR-LBD, which activates the expression of the luciferase reporter gene through interaction with the Gal4 response element. […] Antagonists can compete for binding to the NHR-LBD and decrease the agonist-induced transcriptional activity of the reporter gene. Therefore, measurement of luciferase activity allowed quantitative determinations of the reporter transcription in the presence of either agonists or competitive antagonists.
The final concentration of DMSO in the test plate was 0.5%. Following an overnight incubation with compound, 25 μL of Steady-Glow™ lysis buffer with luciferase substrate (Promega Corporation, E2550) was added directly to the cells. After a 30-minute incubation to completely lyse the cells, the microplates were counted in an Envision™ Multilabel Reader (Perkin Elmer) in single photon counting mode.

| IC50 [nM] | Structure (SMILES) |
| --- | --- |
| 137 | C[C@H]1CN(c2ccc3c(n2)NC(=O)CO3)[C@@H](c2ccc(F)cc2)CO1 (racemic) [Example 9, (±)-6-(cis-5-(4-fluorophenyl)-2-methylmorpholino)-2H-pyrido[3,2-b][1,4]oxazin-3(4H)-one] |
| 89.9 | C[C@H]1CN(c2ccc3c(n2)NC(=O)CO3)[C@@H](c2cccc(F)c2)CO1 (racemic) [Example 11, (±)-6-(cis-5-(3-fluorophenyl)-2-methylmorpholino)-2H-pyrido[3,2-b][1,4]oxazin-3(4H)-one] |
| 1380 | C[C@H]1CN(c2ccc3c(n2)NC(=O)CO3)[C@H](c2ccc(F)cc2)CO1 (racemic) [Example 48, (±)-6-(trans-5-(4-fluorophenyl)-2-methylmorpholino)-2H-pyrido[3,2-b][1,4]oxazin-3(4H)-one] |

| Structure (SMILES) | IC50 [nM] |
| --- | --- |
| C[C@@H]1CN(c2ccc3c(n2)NC(=O)CO3)[C@H](c2ccc(F)cc2)CO1 (single isomer, unassigned) [Example 10] | 105 |
| C[C@@H]1CN(c2ccc3c(n2)NC(=O)CO3)[C@H](c2cccc(F)c2)CO1 (single isomer, unassigned) [Example 29] | 55 |

— patent US20110281854A1, “MORPHOLINE COMPOUNDS” (Pfizer Inc, priority 2010, published 2011)
